Earlier results, collected in publication PMC4416786, “Validation of a P-Glycoprotein (P-gp) Humanized Mouse Model by Integrating Selective Absolute Quantification of Human MDR1, Mouse Mdr1a and Mdr1b Protein Expressions with In Vivo Functional Analysis for Blood-Brain Barrier Transport” (PLoS ONE, 2015).

Sequences of proteins named here, by UniProt entry; tags and fusion partners are left off.
UniProt P21447, whole entry: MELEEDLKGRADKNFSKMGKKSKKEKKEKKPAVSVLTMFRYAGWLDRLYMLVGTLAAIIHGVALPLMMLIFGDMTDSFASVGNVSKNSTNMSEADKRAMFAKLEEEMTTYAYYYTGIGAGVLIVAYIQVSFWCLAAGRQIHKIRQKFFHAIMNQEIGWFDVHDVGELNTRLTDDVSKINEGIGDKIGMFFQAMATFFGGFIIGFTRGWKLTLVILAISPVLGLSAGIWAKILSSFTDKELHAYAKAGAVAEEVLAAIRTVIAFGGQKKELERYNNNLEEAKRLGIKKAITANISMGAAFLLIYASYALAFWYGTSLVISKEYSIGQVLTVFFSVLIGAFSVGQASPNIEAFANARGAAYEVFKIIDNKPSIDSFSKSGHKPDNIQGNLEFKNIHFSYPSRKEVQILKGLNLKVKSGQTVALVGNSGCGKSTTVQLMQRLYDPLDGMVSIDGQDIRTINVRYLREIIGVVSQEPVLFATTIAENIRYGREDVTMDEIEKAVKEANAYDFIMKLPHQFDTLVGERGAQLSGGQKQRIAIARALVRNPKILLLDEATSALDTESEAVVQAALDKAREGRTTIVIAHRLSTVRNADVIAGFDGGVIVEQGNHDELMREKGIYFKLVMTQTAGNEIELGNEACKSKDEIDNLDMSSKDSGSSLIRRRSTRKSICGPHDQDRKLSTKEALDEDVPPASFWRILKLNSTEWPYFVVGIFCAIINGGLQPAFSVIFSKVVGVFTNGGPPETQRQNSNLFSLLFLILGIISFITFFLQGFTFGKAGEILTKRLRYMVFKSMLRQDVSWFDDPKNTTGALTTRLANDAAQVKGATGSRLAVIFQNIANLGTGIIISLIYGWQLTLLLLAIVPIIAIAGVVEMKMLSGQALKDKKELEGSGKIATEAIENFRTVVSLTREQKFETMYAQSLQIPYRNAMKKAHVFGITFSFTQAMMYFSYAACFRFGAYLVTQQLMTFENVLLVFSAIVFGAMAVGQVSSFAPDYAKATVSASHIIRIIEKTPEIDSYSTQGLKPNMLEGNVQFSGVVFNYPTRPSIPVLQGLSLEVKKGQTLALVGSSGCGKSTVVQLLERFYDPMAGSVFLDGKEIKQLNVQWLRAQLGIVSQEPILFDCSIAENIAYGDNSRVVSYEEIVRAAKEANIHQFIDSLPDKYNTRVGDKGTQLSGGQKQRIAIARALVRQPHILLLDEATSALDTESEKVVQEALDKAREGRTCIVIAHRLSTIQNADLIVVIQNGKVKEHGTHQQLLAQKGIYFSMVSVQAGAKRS

Target: T1, P-gp (Mus musculus, UniProt P21447)
T1 construct: hMDR1 and C57BL/6 WT mice; from tissue; host or cells: blood-brain barrier (brain capillaries) of living male C57BL/6 WT mice
Design: method as in PMID 7910522
Settings: cited from earlier work

## ivermectin
  Sensitivity of Mdr1a(-/-) mice compared to wild type controls: 100 fold
